Experimental findings from ChEMBL document CHEMBL4359905, “Discovery, structural insight, and bioactivities of BY27 as a selective inhibitor of the second bromodomains of BET proteins” (Eur J Med Chem, 2019) are described below.

Amino acid sequences for entries named in this document (tags omitted).
UniProt P25440, whole entry: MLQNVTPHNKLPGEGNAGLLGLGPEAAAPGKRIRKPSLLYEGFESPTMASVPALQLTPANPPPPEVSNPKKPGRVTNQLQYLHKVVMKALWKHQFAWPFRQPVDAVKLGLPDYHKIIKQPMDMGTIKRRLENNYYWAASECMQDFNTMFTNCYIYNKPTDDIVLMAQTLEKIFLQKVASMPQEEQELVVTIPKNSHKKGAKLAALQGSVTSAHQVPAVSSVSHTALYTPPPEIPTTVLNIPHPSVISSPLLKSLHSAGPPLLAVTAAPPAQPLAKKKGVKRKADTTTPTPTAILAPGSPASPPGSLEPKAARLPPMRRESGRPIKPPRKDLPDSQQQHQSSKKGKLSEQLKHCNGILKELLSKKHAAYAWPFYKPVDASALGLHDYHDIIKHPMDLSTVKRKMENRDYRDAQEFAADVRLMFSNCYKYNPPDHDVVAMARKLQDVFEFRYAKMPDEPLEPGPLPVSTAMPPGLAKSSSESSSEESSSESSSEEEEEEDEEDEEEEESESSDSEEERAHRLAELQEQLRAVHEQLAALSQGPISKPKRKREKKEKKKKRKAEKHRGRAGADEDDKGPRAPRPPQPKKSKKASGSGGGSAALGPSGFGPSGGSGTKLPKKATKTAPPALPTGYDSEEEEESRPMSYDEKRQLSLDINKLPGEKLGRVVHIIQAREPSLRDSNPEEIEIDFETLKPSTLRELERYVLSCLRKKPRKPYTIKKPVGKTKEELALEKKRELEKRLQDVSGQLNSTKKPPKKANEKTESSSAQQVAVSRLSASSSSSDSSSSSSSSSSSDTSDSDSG

For this experiment, the target named is Bromodomain-containing protein 2 (Homo sapiens, UniProt P25440). As to the kind of experiment: Binding affinity to human recombinant BRD2 BD1 (72 to 205 residues) by fluorescence polarization assay.

With `Cc1sc2c(c1C)C(c1ccc(Cl)cc1)=N[C@@H](CC(=O)Nc1ccc(O)cc1)c1nnc(C)n1-2` [BIRABRESIB], the Ki was determined as 33.2 nM.

The Ki is the dissociation constant of the complex between target and ligand, obtained from inhibition or displacement.
